Reference: PMC6887663 (Pharmacology Research & Perspectives, 2019)

Amino acid sequences for entries named in this document (tags omitted).
UniProt P08183, whole entry: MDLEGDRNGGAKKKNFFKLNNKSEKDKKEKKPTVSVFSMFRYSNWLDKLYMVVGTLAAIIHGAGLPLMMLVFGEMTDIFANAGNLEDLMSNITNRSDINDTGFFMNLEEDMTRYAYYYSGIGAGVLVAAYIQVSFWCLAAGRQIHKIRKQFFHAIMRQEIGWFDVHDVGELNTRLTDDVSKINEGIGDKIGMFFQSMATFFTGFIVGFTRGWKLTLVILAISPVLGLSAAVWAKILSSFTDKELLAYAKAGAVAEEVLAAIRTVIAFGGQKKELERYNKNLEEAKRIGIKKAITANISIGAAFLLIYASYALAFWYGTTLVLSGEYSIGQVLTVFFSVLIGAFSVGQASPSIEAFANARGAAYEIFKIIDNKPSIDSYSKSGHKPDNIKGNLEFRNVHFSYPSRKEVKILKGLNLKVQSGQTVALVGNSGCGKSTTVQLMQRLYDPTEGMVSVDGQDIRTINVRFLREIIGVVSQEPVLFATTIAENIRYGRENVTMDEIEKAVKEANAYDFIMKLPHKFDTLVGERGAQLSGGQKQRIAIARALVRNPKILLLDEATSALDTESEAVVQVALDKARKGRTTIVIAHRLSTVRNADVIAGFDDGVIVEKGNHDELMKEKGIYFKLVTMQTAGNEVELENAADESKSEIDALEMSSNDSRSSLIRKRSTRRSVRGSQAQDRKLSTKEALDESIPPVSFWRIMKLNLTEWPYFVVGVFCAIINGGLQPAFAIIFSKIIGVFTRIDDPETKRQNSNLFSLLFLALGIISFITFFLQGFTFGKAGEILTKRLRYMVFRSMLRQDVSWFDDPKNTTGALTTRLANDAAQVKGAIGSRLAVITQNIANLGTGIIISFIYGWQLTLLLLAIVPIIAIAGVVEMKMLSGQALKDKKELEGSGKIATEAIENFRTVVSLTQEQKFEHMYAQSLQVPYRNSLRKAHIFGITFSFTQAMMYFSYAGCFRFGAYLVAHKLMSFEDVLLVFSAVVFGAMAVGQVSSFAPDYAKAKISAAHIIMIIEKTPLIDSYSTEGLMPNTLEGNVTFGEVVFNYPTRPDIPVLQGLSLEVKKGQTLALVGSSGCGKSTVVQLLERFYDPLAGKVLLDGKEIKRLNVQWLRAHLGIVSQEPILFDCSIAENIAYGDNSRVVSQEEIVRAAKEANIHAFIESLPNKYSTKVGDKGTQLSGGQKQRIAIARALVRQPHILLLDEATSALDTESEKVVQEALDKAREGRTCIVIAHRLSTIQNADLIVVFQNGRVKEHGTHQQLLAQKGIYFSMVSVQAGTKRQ

What was measured:
P‐gp [1] = molecular target: T1, P‐gp (Homo sapiens, UniProt P08183); experiment: P-gp substrate assessment in MDCKII-MDR1 and WT MDCKII cells; format: in vitro ADME; conditions: [^3H]digoxin; in both DMF and MMF experiments; reduced by verapamil
P‐gp [2] = molecular target: T1, P‐gp; experiment: P-gp inhibition, [3H]digoxin efflux in Caco-2 cells; conditions: [^3H]digoxin in the absence of DMF and MMF

C[C@H]1O[C@@H](O[C@H]2[C@@H](O)C[C@H](O[C@H]3[C@@H](O)C[C@H](O[C@H]4CC[C@@]5(C)[C@H](CC[C@@H]6[C@@H]5C[C@@H](O)[C@]5(C)[C@@H](C7=CC(=O)OC7)CC[C@]65O)C4)O[C@@H]3C)O[C@@H]2C)C[C@H](O)[C@@H]1O [[^3H]digoxin, reference compound]
net efflux ratio of probe substrate (P‐gp [1]): > 16.6
efflux ratio of probe substrate (P‐gp [2]): ≥ 5.89
